Target: GMPPNP-loaded KRAS G12C (Homo sapiens, UniProt P01116, G12C)
Assay: KRAS G12C RAF Disruption Assay (HTRF)
Conditions: read-out: KRASG12C RAF Disruption Assay (IC50); recombinant GMPPNP-loaded KRAS G12C (5 nM), 20 min with compound; GST-RAF1 RBD (9 nM); HTRF signal
Experimental: KRAS^G12C RAF Disruption Assay
This is a functional assay that measures activity of compounds against KRAS-G12C^(ON), i.e., the active form of KRAS G12C. Recombinant GMPPNP-loaded KRAS G12C (5 nM) was treated with compound at room temperature for 20 minutes in assay buffer (50 mM Tris pH 7.5, 100 mM NaCl, 1 mM MgCl2, 1 mM DTT, 100ug/ml BSA). Recombinant GST-RAF1 RBD (9 nM) was added, and the reaction mixture was incubated for 20 minutes. SA-Tb (0.25 nM) was added, and the reaction mixture was incubated for 3 hours. HTRF signal was measured (PerkinElmer Envision), the signal ratio (λem 520/λem 495) was calculated, and IC50 values were calculated from the dose-response curve.

By UniProt entry, the sequences of proteins in these tests, tags left out. Residues count along the entry.
UniProt P01116, 1-188 isoform 2 G12C: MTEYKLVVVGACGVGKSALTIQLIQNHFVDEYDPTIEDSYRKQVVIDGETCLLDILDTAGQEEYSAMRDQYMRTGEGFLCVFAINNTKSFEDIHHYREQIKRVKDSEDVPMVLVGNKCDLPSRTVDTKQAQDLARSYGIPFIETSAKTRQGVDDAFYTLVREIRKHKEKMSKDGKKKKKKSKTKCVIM

| IC50 [µM] | SMILES |
| --- | --- |
| 0.3 | C#Cc1c(F)ccc2cccc(-c3ncc4c(N5CCN(C(=O)/C(F)=C/c6nccs6)C[C@@H]5C)nc(OC[C@@]56CCCN5C[C@H](F)C6)nc4c3F)c12 |
| 3.3 | C#Cc1cccc2cccc(-c3ncc4c(N5CCC6(CC5)CN(C(=O)/C(F)=C/c5ccccn5)C6)nc(OC[C@@]56CCCN5C[C@H](F)C6)nc4c3F)c12 |

Reference: patent US20240067662A1, “KRAS INHIBITORS” (Bristol-Myers Squibb Company, priority 2022, published 2024)
